From patent US10864279B2, “Linker-drug and antibody-drug conjugate (ADC) employing the same” (priority 2016, dated 2020)

Legend:
[1] = Body weight and clinical symptoms, BT-474 xenograft model; type: in vivo, NODSCID mice; details: 10 mg/kg i.v. twice at Day 0 and Day 21
Method: The length and width of the tumor were measured and the tumor size was calculated by (length×width×width×½) (mm^3) and recorded.

[2] = Body weight and clinical symptoms, EC PDX model; type: in vivo, NODSCID mice
Method: Endometrial cancer tumor tissue obtained from National Taiwan University was confirmed to be HER2-positive (+1). Tumor (2-3 mm diameter) was subcutaneous implanted to NODSCID mice to test the drug efficacy of ADCs in vivo. When the average tumor size was about 100 mm^3, mice were divided into groups and ADCs were intravenously injected (10 mL/kg B.W. injection volume).

For “ado-trastuzumab emtansine [Kadcyla, reference compound]”, the “BW (%) ± SEM Day 0-60” value [1] was 107.9 ± 2^ %, the “BW (%) ± SEM Day 0-60” value ([2]; 10 mg/kg i.v.) was 102.0 ± 3.4% and the “weight losing or abnormal clinical symptoms after administration” value ([2]; 10 mg/kg, in words) was “no weight losing or other significant abnormal clinical symptoms occurred”.
